From PubChem BioAssay AID1832 (Broad Institute, 2009)
This is a selection; strong and weak results do not stand in their true shares. The source made the active and inactive calls.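 Rule for the calls: active = inhibition past about -25% in most replicates, and total fluorescence under double the plate's negative control median (limit read from the data); inconclusive = replicates evenly split on the limit, or fluorescence at least double controls; inactive = too little inhibition in most replicates.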

Chains of the proteins cited; added tags and fusions are not shown. Lines headed by an entry give the natural chain unless they say otherwise; changes in a name come on top.
UniProt Q9XUB2: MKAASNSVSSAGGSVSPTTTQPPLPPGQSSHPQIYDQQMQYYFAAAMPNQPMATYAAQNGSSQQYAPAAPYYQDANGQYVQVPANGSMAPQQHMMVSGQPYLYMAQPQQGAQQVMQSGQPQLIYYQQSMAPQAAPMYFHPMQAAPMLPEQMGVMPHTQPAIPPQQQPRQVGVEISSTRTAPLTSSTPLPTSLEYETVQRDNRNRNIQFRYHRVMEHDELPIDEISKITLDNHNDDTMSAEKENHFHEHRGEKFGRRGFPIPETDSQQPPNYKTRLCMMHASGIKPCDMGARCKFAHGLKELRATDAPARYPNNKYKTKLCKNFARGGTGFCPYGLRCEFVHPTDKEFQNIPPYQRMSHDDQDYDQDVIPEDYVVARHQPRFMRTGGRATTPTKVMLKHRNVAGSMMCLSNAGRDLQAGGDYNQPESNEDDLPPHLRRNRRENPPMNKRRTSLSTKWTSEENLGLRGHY

Each compound was assayed against Zinc finger protein mex-5 (Caenorhabditis elegans) (UniProt Q9XUB2) (assay: MEX-5 zinc finger RNA-binding disruptors – biochemical, C. elegans, fluorescence polarization, MLPCN library, primary screen (AID 1832;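 note: 0% = DMSO and -100% = 5 µM competing unlabeled TCR2 RNA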)). Details: MEX-5/FITC-TCR2 RNA binding, at 10 µM, active compounds read low.

| SMILES | activity score (negative = inhibition of binding) |
| --- | --- |
| CS(=O)(=O)c1ccc(Cl)c(NC(=O)COC(=O)C(O)(c2ccccc2)c2ccccc2)c1 | inactive: 1.82% |
| N#CCCN(C(=O)COC(=O)C(O)(c1ccccc1)c1ccccc1)c1ccc(F)cc1 | inactive: 0.89% |
| CCOP1(=S)c2c(C)nn(CCC#N)c2N=C(c2ccc(F)cc2)N1C (configuration not stated) | inactive: -0.183% |
| CN(C(=O)Cc1ccccc1)[C@@H]1CC[C@]2(CCCO2)C[C@H]1N1CCCC1 | inactive: -3.4% |
| CN(C)C(=O)c1cc([N+](=O)[O-])cc2c1-c1c(cc([N+](=O)[O-])cc1[N+](=O)[O-])C2=O | inactive: 1.03% |
| O=[N+]([O-])c1ccc2c(c1)nnn2O | inactive: -1.9% |
| CN(C(=O)Cc1ccc(Cl)c(Cl)c1)[C@H]1CC[C@@]2(CCCO2)C[C@@H]1N1CCCC1 | inactive: -0.35% |
| NC(=O)Nc1ccc([As](=O)(O)O)cc1 | inactive: 0.983% |
| Nc1ccccc1[As](=O)(O)c1ccccc1 | inactive: 0.00476% |
| O=C(O)COc1ccc([As](=O)(O)O)cc1[N+](=O)[O-] | inactive: -0.374% |
| CCOP1(=S)c2c(C)nn(CCC#N)c2N=C(c2ccccc2F)N1C (configuration not stated) | inactive: 4.31% |
| O=P(Nc1nccs1)(c1ccccc1)c1nc2ccccc2s1 (configuration not stated) | inactive: -3.95% |
| O=P(Nc1nccs1)(Oc1ccccc1)Oc1ccccc1 | inactive: 0.998% |
| CS(=O)(=O)c1cc([N+](=O)[O-])c2no[n+]([O-])c2c1 | inactive: -12.9% |
| CCN(CC)C(=S)SC(NC=O)C(Cl)(Cl)Cl (configuration not stated) | inactive: 2.38% |
| CC(C)NC(=O)NP(=O)(Oc1ccccc1)Oc1ccccc1 | inactive: 2.1% |
| O=[N+]([O-])c1cc([N+](=O)[O-])c(-c2ccn[nH]2)s1 | inactive: -0.387% |
| ClCCSc1nnc(-c2cccnc2)o1 | inactive: 2.19% |
| CC(C)c1ccc(OP(=O)(Nc2ccccn2)Oc2ccccc2F)cc1 (configuration not stated) | inactive: -3.1% |
| Cc1ccc(OP(=O)(Nc2ccc([N+](=O)[O-])cn2)Oc2ccc(C)cc2)cc1 | inactive: -1.38% |
| Cc1ccc2nc3c(c(C)c2c1)CC(C(Cl)Cl)S3 (configuration not stated) | inactive: -3.15% |

| SMILES | activity score (negative = inhibition of binding) |
| --- | --- |
| C[As](=O)(O)c1cccc(C(=O)O)c1 | inactive: 0.678% |
| O=[As](O)(c1ccc(O)cc1)c1ccccc1O | inactive: -0.0823% |
| COc1ccc(N/C(=N/P(=O)(N2CCOCC2)N2CCOCC2)N2CCOCC2)cc1 | inactive: 1.15% |
| COc1ccc2nc(NP(=O)(c3ccccc3)c3ccccc3)sc2c1 | inactive: -1.19% |
| COc1cc(I)ccc1[As](=O)(O)O | inactive: -3.65% |
| Cc1c2c(nc3ccccc13)SC(C(Cl)Cl)C2 (configuration not stated) | inactive: 2.62% |
| O=C(OC1CN2CCC1CC2)C12CC3CC(CC(C3)C1)C2 (configuration not stated) | inactive: 0.495% |
| Cc1cc(=O)[nH]c(N[N+](=O)[O-])n1 | inactive: -0.682% |
| CCC(C)N(CC(C)C)C(=S)SC(NC(C)=O)C(Cl)(Cl)Cl (configuration not stated) | inactive: -0.588% |
| O=C(OC1CN2CCC1CC2)c1cccc([N+](=O)[O-])c1 (configuration not stated) | inactive: -2.16% |
| CCOC(=O)c1ccc(NC(=O)C(C)(CCl)SC)cc1 (configuration not stated) | inactive: 1% |
| O=C(COc1ccccc1)OC1CN2CCC1CC2 (configuration not stated) | inactive: -2.33% |
| O=C(Nc1ccncc1[N+](=O)[O-])c1ccc([N+](=O)[O-])cc1[N+](=O)[O-] | inactive: -0.269% |
| COP1(=S)c2c(C)nn(CCC#N)c2N=C(c2ccc(F)cc2)N1C (configuration not stated) | inactive: -2.04% |
| O=P(Nc1ccccn1)(c1cccc2ccccc12)c1cccc2ccccc12 | inactive: 2.88% |
| Cc1cc(SC(NC=O)C(Cl)(Cl)Cl)ncn1 (configuration not stated) | inactive: 1.56% |
| O=[N+]([O-])c1ccc(Nc2ccc(Oc3ccc([N+](=O)[O-])cc3[N+](=O)[O-])cc2)c([N+](=O)[O-])c1 | inactive: -0.585% |
| CCOC(=O)Nc1cccc([As](=O)(O)O)c1 | inactive: 0.405% |
| CCCCOc1ccc(C(=O)NCC2(N3CCCCC3)CCCCC2)cc1OC | inactive: 2.38% |
| Cc1cc(SC(NC(=O)c2ccccc2)C(Cl)(Cl)Cl)nc(C(C)C)n1 (configuration not stated) | inactive: -0.0132% |
| CCOC(=O)Nc1ccc([As](=O)(O)O)c(O)c1 | inactive: -3.51% |
